Here are results for one compound from EP1914235A1, “CHIRAL TETRA-HYDRO BETA-CARBOLINE DERIVATIVES AND APPLICATIONS THEREOF AS ANTIPARASITIC COMPOUNDS” (Université de Lille 2 Droit et Santé, priority 2006, dated 2008).

The subject of the assay is Plasmodium berghei ANKA strain. Kind of assay: In vivo antiparasitic activity in infected mice (4-day dosing, parasitemia on day 5). The note with it: control drug, per os every day for 4 days at 10 mg/kg. The method, then:
P. berghei ANKA strain, which is chloroquine sensitive (Killick-Kendrick, 1978).
Female mice (TFW or BALB/c, specific pathogen free), 18-20 g, or
Infection: Blood was taken from donor mice and diluted in RPMI-1640 medium to a parasitemia of 1% (the equivalent of 1x10^7 infected erythrocytes/ml) whilst kept on ice. An inoculum of 0.2 ml was administered to each mouse by the intravenous route. At 2-4 hours post-inoculation dosing commences.
Evaluation endpoint: On day 5 blood smears of all animals (2 slides/mouse) were prepared, fixed with methanol and stained with 10% Giemsa's stain. Parasitemia was determined microscopically by counting 1000 red blood cells under oil immersion at 1000x magnification. Results were reported as % infected erythrocytes and compared to the chloroquine control group and the untreated control group.
The chloroquine sensitive Plasmodium berghei ANKA strain was used in the primary evaluation.
Each of the tested compounds of formula (I) according to the invention was prepared as a stock solution of 5 mg/ml in 10% DMSO/PBS. Insoluble compounds of formula (I) were milled with stainless steel balls for up to 24 hours to reduce particle size. Fresh dilutions were prepared each day. The route of administration of tested compounds is intra peritoneal (i.p.). […]

On to `CCN(CC)CCCC(C)Nc1ccnc2cc(Cl)ccc12` (stereo not shown) [Chloroquine, reference compound], for which the “parasite clearance on day 4” value is given as greater than 90%.
